Measured values as given in ChEMBL document CHEMBL1126680, “Structure-activity relationships of 8-styrylxanthines as A2-selective adenosine antagonists” (J Med Chem, 1993).

The chains behind the UniProt entries cited, without tags or fusion partners. Where a name states a change or a piece, a line headed by the entry shows the natural chain unless it says otherwise.
UniProt P29276: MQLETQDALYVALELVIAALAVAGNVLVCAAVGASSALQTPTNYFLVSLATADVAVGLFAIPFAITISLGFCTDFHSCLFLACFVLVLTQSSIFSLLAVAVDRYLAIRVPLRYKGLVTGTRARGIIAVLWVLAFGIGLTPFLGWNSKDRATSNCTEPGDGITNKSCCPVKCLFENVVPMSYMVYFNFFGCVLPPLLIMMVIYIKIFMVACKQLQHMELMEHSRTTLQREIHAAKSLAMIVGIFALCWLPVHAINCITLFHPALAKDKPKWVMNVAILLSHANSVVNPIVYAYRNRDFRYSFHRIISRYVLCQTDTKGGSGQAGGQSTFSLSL
UniProt P30543: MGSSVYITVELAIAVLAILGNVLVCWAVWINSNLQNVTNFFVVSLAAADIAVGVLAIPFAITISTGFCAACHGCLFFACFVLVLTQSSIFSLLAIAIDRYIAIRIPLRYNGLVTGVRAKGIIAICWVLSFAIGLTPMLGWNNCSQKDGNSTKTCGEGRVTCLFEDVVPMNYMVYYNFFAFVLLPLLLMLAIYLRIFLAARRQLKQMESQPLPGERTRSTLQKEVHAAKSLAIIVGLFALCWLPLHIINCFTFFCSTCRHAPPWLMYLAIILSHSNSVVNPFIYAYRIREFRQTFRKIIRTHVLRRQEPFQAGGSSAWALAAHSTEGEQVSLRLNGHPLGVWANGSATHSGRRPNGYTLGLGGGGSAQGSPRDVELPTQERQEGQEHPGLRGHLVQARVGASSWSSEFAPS

Molecular target: Adenosine A2 receptor (Rattus norvegicus, UniProt P29276+P30543)
Assay: Binding affinity against adenosine A2 receptor in rat brain using [3H]- CGS 21680 as radioligand
Format: tissue-based

Point of comparison: `CCCn1c(=O)c2c(nc(/C=C/c3cccc(Cl)c3)n2C)n(CCC)c1=O`, Ki 61.3 nM. Against it:
- Cn1c(=O)c2c(nc(/C=C/c3ccccc3)n2C)n(C)c1=O — 1.5-fold higher, 94 nM
- CCn1c(=O)c2c(nc(/C=C/c3cc(OC)c(OC)c(OC)c3)n2C)n(CC)c1=O — within 1.5-fold, 81 nM
